Earlier results, collected in patent publication US20220409620A1, “REDUCING IMMUNOGENICITY TO PEGLOTICASE” (Horizon Pharma Rheumatology LLC, priority 2016, published 2022).

Tested on: patients
Details: prophylaxis of gout; cited from earlier work

SMILES: COc1cc2c(c(OC)c1OC)-c1ccc(OC)c(=O)cc1[C@@H](NC(C)=O)CC2 [colchicine]
- diarrhea: 23%
- pharyngolaryngeal pain: 3%
